Reference: patent US10052330B2, “Substituted pyrido[3,4-b]pyrazines as Syk inhibitors” (HUTCHISON MEDIPHARMA LIMITED, priority 2011, dated 2018)

Experiments:
[1] = tested on: Bone marrow mast cells (BMMCs); experiment: IgE-induced LAT phosphorylation in bone marrow mast cells; type: cell-based, mice; conditions: Mus musculus, BMMC, read-out: IC50, IgE-induced LAT phosphorylation
RBL-2H3 cells = experiment: IgE-induced Beta-hexosaminidase secretion in RBL-2H3 cells; type: cell-based; conditions: Rattus norvegicus, RBL-2H3, read-out: IC50, IgE-induced Beta-hexosaminidase secretion

IC50 [1] [nM] | IC50 (RBL-2H3 cells) [nM] | Structure (SMILES)
100 to 1000 | 1 to 100 | Clc1cc(-c2cc3nccnc3c(NC[C@@H]3CNCCO3)n2)ccc1N1CCOCC1 [Compound 134]
 | 1 to 100 | N#Cc1cc(-c2cc3nccnc3c(NC[C@@H]3CNCCO3)n2)ccc1N1CCOCC1 [Compound 213]
